Literature values in patent publication US8030306B2, “Azabicyclic heterocycles as cannabinoid receptor modulators” (Bristol-Myers Squibb Company, priority 2006, dated 2011).

Conditions: chronic administration for two weeks; cited from earlier work

## AM-251
  body weight and adipose tissue mass: substantial body weight reduction and decreased adipose tissue mass
